Apparent affinities of Ab-14 variants for a coronavirus HR2 peptide

Target peptide (SARS-CoV-2 spike, HR2 region): PDVDLGDISGINAS

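Phage display of a naive human antibody library on the peptide gave the parent. These sequences belong to a second round, designed from the earlier measurements on random variants of the parent. Their group label is 14L_En_HC (En: ensemble of fine-tuned language models; HC: hill climbing; a sequence that several methods proposed may carry one label only). Affinity was read by AlphaSeq, a pooled yeast mating assay with surface-displayed partners. Mating (16 h, 30 °C) was followed by selection of diploids and sequencing of their barcodes. Each replicate has its own calibration line, from reference interactions of the BCL2 family. Mating was done six times.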

Parent scFv Ab-14: VH joined to VL by the linker GGGGSGGGGSGGGGS. Changes lie in the light chain CDRs alone.
VH: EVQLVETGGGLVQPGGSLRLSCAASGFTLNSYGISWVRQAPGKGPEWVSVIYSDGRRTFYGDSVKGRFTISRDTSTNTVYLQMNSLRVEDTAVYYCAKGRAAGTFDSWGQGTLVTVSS
VL: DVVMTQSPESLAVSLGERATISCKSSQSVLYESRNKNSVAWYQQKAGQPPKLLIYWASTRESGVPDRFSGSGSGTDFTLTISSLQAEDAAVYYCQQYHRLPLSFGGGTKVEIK

Each variant's VL is given in full.
Numbers give log10(Kd / nM), so 0 is 1 nM and 3 is 1 µM. Smaller is tighter.
Averages over replicates are reported, and they cover detected replicates only.
A pair that was not seen in that replicate is written "nd"; this usually means weak binding, but a binder can also be missed.
In the paper, a design with two or fewer of six values counts as a poor binder.

| VL | replicates, log10 nM | log10 Kd (nM), mean | control signals |
|---|---|---|---|
| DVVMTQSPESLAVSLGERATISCKIGHMVTGTSRKGNSVAWYQQKAGQPPKLLIYQAETRLDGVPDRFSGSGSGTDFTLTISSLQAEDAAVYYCQQYHRLPLMFGGGTKVEIK | 0.73 / 0.50 / 0.75 / 0.55 / 0.52 / 0.59 | 0.60 | 0/18 |
| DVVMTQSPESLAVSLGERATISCSISMSMAFLSRNKNSVAWYQQKAGQPPKLLIYENSTRESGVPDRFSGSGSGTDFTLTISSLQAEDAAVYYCQQYDRLPLLFGGGTKVEIK | nd / 3.50 / nd / nd / 2.63 / nd | 3.07 | 0/18 |
| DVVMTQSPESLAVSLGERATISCKVSQSVMMLSRNKNSVAWYQQKAGQPPKLLIYDNSTSGPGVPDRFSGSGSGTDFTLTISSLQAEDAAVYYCQQYHRLPLSFGGGTKVEIK | 1.14 / 1.07 / 0.97 / 0.91 / 1.28 / 1.24 | 1.10 | 1/18 (3.77) |
| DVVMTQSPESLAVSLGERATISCKLREVHHVETKQKNNVAWYQQKAGQPPKLLIYDNDTRESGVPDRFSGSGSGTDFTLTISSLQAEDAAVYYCQDYYRLPLSFGGGTKVEIK | 2.18 / nd / nd / nd / nd / nd | 2.18 | 0/18 |
| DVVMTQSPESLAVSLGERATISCIISYVDAYESRNKNSIAWYQQKAGQPPKLLIYDQSTRGSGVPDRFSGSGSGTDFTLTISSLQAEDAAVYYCQQYDRLPLSFGGGTKVEIK | 0.88 / 0.47 / 0.55 / 0.56 / 0.65 / 0.69 | 0.63 | 1/18 (3.72) |
| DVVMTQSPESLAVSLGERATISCKIAQSMAMTSHHINSVAWYQQKAGQPPKLLIYQSTTREEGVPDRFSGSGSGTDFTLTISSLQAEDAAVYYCQQYNRLPLSFGGGTKVEIK | 0.11 / 0.03 / 0.14 / -0.20 / -0.28 / 0.21 | 0.00 | 1/18 (2.28) |
| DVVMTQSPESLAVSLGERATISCKLYQAMGYLSHNKNSIAWYQQKAGQPPKLLIYDMSRRENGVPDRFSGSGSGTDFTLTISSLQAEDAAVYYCQQYHRLPLSFGGGTKVEIK | 0.47 / 0.05 / 0.16 / 0.04 / 0.47 / 0.24 | 0.24 | 2/18 (3.26) |
| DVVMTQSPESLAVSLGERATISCMISGSVMSEQRLKNSVAWYQQKAGQPPKLLIYQTTTRESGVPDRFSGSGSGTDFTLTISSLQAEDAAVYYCQQYDRLPLSFGGGTKVEIK | 1.25 / 1.16 / 0.85 / 1.11 / 0.97 / 1.16 | 1.08 | 1/18 (2.06) |
| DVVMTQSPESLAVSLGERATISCKLGQSVAMTSRNKNNVAWYQQKAGQPPKLLIYDLNERERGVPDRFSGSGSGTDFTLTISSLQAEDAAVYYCQQYYRLPLSFGGGTKVEIK | -0.64 / -0.29 / -0.59 / -0.65 / -0.91 / -0.62 | -0.62 | 1/18 (1.50) |
| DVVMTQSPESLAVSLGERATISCKLSQVTHSESRIKNSIAWYQQKAGQPPKLLIYEMVTREVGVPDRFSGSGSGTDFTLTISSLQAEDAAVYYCQQYDRLPLSFGGGTKVEIK | 1.28 / 0.90 / 0.87 / 0.46 / 0.58 / 0.94 | 0.84 | 0/18 |
| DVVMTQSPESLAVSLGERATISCTLSESMDMTSRNVNSVAWYQQKAGQPPKLLIYDLTTRGNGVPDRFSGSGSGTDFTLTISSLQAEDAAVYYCQQYHRLPLSFGGGTKVEIK | nd / 0.86 / 0.60 / nd / 1.32 / 0.77 | 0.89 | 1/18 (1.64) |
| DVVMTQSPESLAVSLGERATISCIISQSMLYESATHNSIAWYQQKAGQPPKLLIYQTTTREEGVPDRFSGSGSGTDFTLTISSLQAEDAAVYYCQQYHHLPLIFGGGTKVEIK | 1.01 / 1.83 / 1.83 / 2.00 / 1.32 / 1.54 | 1.59 | 0/18 |
| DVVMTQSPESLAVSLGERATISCKLSQSANYLSRVMNSVAWYQQKAGQPPKLLIYDNSTRESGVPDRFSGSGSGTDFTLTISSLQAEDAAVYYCQQYFRLPLSFGGGTKVEIK | 0.64 / 0.02 / 0.16 / 0.47 / 0.41 / 0.30 | 0.33 | 1/18 (2.48) |
| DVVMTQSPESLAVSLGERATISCKISMSITFESRNKNSVAWYQQKAGQPPKLLIYENSTRESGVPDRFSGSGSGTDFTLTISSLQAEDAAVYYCQSYHRLPLSFGGGTKVEIK | 1.70 / 1.31 / 1.36 / 1.78 / 1.27 / 1.74 | 1.53 | 0/18 |
| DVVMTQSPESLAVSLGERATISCKCSQNVLIMGRGPNNVAWYQQKAGQPPKLLIYEMTTREEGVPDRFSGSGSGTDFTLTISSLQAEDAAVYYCQQYDRLPLSFGGGTKVEIK | 1.26 / 0.80 / 1.06 / 0.86 / 1.06 / 1.45 | 1.08 | 1/18 (1.90) |
| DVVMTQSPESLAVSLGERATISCTISTSALYEQTNKNSVAWYQQKAGQPPKLLIYELTTRGSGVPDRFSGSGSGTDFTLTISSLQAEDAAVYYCQQYERLPLSFGGGTKVEIK | 0.94 / 0.88 / 1.10 / 0.89 / 1.17 / 1.46 | 1.07 | 1/18 (2.05) |
| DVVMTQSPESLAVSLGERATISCKLSMSYRYESENKNSIAWYQQKAGQPPKLLIYELVTRMSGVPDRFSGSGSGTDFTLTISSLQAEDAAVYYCQQYHRLPLSFGGGTKVEIK | 1.57 / 1.30 / 0.99 / 1.25 / 1.15 / 1.22 | 1.25 | 0/18 |
| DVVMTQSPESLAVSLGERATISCMMSMGYLGGMRAKNNVAWYQQKAGQPPKLLIYQESTREDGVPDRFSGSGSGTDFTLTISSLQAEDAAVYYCQQYHRLPLIFGGGTKVEIK | nd / nd / nd / 1.52 / 1.90 / 1.36 | 1.59 | 1/18 (2.26) |
| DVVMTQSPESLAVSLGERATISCKLSQVTHSVSRNKNSIAWYQQKAGQPPKLLIYEMVTREVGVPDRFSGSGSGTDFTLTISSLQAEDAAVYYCQQYDRLPLSFGGGTKVEIK | 0.72 / 0.42 / 0.75 / 1.26 / 1.02 / 0.22 | 0.73 | 1/18 (2.39) |
| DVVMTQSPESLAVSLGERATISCTIGAATLEESRNKNSVAWYQQKAGQPPKLLIYEMSLRENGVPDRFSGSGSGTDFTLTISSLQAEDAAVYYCQSYDRLPLSFGGGTKVEIK | 2.48 / 2.31 / 1.72 / 1.97 / 2.07 / 2.08 | 2.11 | 0/18 |

The range of this assay differs from that of the first round, and the authors advise against merging the two.
The parent sequence was in this pool as ten entries: three were never detected, three once, and four in most replicates, with averages from 0.34 to 2.37.
Nonspecific signal, from three strains lacking the peptide, appeared in 4% of pairings of all light chain designs, centred on 2.64 (5% of these signals below 1.59); values are not corrected for it. For each scFv, signals with the empty controls are counted beside the result, with their mean in brackets.

From the AlphaSeq antibody data of Li et al. 2023 (doi:10.1038/s41467-023-39022-2), copy in the FLAb collection.